Experimental data: ChEMBL document CHEMBL1147729, “(+)-(2R,5S)-4-[4-cyano-3-(trifluoromethyl)phenyl]-2,5-dimethyl-N-[6-(trifluoromethyl)pyridin-3-yl]piperazine-1-carboxamide (YM580) as an orally potent and peripherally selective nonsteroidal androgen receptor antagonist” (J Med Chem, 2006)

Protein sequences, listed by entry. Tags and fused reporters are not part of them. Lines headed by an entry give the natural chain unless they say otherwise; changes in a name come on top.
UniProt P10275: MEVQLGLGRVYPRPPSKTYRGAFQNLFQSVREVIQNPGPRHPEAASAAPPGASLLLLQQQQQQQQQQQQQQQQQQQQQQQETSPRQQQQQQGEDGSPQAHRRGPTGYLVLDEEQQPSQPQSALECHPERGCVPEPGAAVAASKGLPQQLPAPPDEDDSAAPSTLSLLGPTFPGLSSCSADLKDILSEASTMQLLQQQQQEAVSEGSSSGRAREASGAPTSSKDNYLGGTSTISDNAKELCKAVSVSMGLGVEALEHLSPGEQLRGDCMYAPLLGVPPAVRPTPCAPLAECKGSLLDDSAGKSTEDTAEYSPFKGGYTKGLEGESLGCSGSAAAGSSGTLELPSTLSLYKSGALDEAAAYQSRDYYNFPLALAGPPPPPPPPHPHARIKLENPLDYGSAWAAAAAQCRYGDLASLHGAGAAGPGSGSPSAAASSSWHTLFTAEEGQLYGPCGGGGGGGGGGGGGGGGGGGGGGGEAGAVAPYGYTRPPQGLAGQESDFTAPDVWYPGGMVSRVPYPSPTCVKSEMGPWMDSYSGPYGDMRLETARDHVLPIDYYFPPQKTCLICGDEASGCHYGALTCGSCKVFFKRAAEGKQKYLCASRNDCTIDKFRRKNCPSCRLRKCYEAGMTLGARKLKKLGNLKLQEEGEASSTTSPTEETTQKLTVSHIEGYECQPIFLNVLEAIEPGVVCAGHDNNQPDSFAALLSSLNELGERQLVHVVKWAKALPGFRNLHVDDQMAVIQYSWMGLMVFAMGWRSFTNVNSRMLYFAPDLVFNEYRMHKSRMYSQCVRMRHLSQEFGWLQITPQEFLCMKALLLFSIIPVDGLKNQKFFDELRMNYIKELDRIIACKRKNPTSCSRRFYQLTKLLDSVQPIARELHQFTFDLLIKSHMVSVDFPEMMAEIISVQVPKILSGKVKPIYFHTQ

What follows are compounds tested against T1, Androgen receptor (Homo sapiens, UniProt P10275).
Compound COc1ccncc1NC(=O)N1C[C@H](C)N(c2ccc(C#N)c(C(F)(F)F)c2)C[C@H]1C (racemic) has an IC50 of 1200 nM. Work on C[C@@H]1CN(C(=O)Nc2ccc(C(F)(F)F)nc2)[C@@H](C)CN1c1ccc(C#N)c(C(F)(F)F)c1 yielded an IC50 of 1300 nM. With CC1CN(c2ccc(C#N)c(C(F)(F)F)c2)C(C)CN1C(=O)Nc1ccc(C(F)(F)F)nc1 (racemic) the IC50 was 210 nM. For C[C@@H]1CN(c2ccc(C#N)c(C(F)(F)F)c2)[C@@H](C)CN1C(=O)Nc1ccncc1 (racemic), the IC50 was 140 nM. C[C@@H]1CN(c2ccc(C#N)c(C(F)(F)F)c2)[C@@H](C)CN1C(=O)Nc1ccc(C(F)(F)F)nc1 (racemic) showed an IC50 of 110 nM.

Each compound was assayed against T1, Androgen receptor (assay: Inhibition of human AR).
Compound C[C@@H]1CN(c2ccc(C#N)c(C(F)(F)F)c2)[C@@H](C)CN1C(=O)Nc1ccc(C(F)(F)F)nc1 (racemic) has a Ki of 4.6 nM.
